AlphaSeq binding of Ab-95 light chain variants to a spike HR2 peptide

Binding partner: SARS-CoV-2 spike HR2 peptide, sequence PDVDLGDISGINAS.

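Phage display of a naive human antibody library on the peptide gave the parent. AAYL52 was designed without a model: most single CDR substitutions and a random sample of double and triple ones. Affinity was read by AlphaSeq, a pooled yeast mating assay with surface-displayed partners. After mating in shaken culture at 30 °C for 16 h, diploids were selected and their barcode pairs sequenced. Read counts were normalised to the haploid input and turned into Kd by a linear fit to BCL2-family pairs of known affinity, for each replicate. Mating was done three times.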

Each scFv is VH, the linker GGGGSGGGGSGGGGS, VL, as in the parent Ab-95, and differs from it in the CDRs of the light chain only.
VH: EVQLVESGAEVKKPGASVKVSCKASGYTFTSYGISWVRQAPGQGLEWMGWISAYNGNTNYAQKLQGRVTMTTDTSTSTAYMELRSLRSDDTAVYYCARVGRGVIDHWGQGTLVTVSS
VL: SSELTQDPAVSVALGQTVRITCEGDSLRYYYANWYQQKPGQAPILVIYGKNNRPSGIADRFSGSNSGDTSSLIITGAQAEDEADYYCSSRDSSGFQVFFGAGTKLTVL

Positions count from residue 1 of the parent VL; N33R puts R in place of N.
Numbers give log10(Kd / nM), so 0 is 1 nM and 3 is 1 µM. Smaller is tighter.
Replicates are averaged; those with no signal do not enter the mean.
An entry "n.d." has no value in the source: the pair was not observed among the diploids in that replicate. This suggests poor binding but is not conclusive.

| # | changes | replicates, log10 nM | log10 Kd (nM), mean | signal with controls |
|---|---|---|---|---|
| 1 | N33R/K50R/N51A | 3.46 / n.d. / 4.59 | 4.03 | 3/9 (4.36) |
| 2 | D25K/Y31Q/F98C | 1.68 / 1.68 / 1.64 | 1.67 | 2/9 (4.08) |
| 3 | N52E/R53E/D91N | 4.31 / n.d. / n.d. | 4.31 | 2/9 (3.13) |
| 4 | S26P/P54R/S55W | 4.24 / 4.42 / 4.03 | 4.23 | 1/9 (3.99) |
| 5 | S26G/G94P/Q96S | 2.82 / 2.49 / 1.92 | 2.41 | 4/9 (3.97) |
| 6 | K50P/S92M | 2.36 / 2.12 / 2.25 | 2.24 | 3/9 (3.82) |
| 7 | N33D/S89I/D91N | n.d. / n.d. / n.d. | n.d. | 4/9 (4.11) |
| 8 | R28P/P54R/V97I | 3.68 / 3.68 / 1.66 | 3.01 | 3/9 (4.20) |
| 9 | K50P/R90E/F98K | 2.90 / 2.72 / 2.21 | 2.61 | 2/9 (4.04) |
| 10 | E23K/Y31C/R90T | n.d. / 5.11 / n.d. | 5.11 | 2/9 (3.15) |
| 11 | N33H/S55V/S93K | n.d. / 4.00 / n.d. | 4.00 | 5/9 (3.50) |
| 12 | E23N/R53W/P54D | n.d. / n.d. / n.d. | n.d. | 0/9 |
| 13 | D25K/Y29E | 2.20 / 1.92 / 1.80 | 1.97 | 1/9 (5.39) |
| 14 | S55R/F98Y | 2.56 / 2.32 / 2.38 | 2.42 | 2/9 (4.11) |
| 15 | N51C/D91K/S93N | n.d. / n.d. / n.d. | n.d. | 2/9 (4.62) |
| 16 | Y29K/N33A/Q96P | 3.80 / 3.88 / n.d. | 3.84 | 6/9 (3.35) |
| 17 | S55P/S93K/V97A | 3.11 / 2.37 / 2.72 | 2.73 | 0/9 |
| 18 | R28N/S93R/G94M | 2.51 / 1.97 / 1.81 | 2.09 | 0/9 |
| 19 | G24Y/G49Y/S89Q | 5.20 / 3.92 / 2.81 | 3.98 | 3/9 (3.58) |
| 20 | R53L/S93N/F95K | 2.94 / 2.87 / 4.06 | 3.29 | 4/9 (3.56) |
| 21 | R28H/Y31H/D91S | 2.03 / 1.96 / 1.82 | 1.94 | 3/9 (3.57) |
| 22 | R28F/A32D/P54E | n.d. / 4.27 / 4.30 | 4.29 | 2/9 (4.50) |
| 23 | D25G/N51V | 3.75 / n.d. / n.d. | 3.75 | 3/9 (3.35) |
| 24 | L27Q/K50P/S92E | 2.49 / 2.17 / 2.41 | 2.36 | 2/9 (3.34) |
| 25 | Y29P/N52M/F95G | 2.84 / 3.13 / 2.85 | 2.94 | 4/9 (3.58) |
| 26 | S89P/F95H/Q96D | 3.45 / 3.98 / n.d. | 3.72 | 4/9 (3.77) |
| 27 | Y30T/F98A | 1.31 / 1.28 / 0.97 | 1.19 | 2/9 (4.59) |
| 28 | R28S/S88Y/F98L | n.d. / n.d. / n.d. | n.d. | 0/9 |
| 29 | Y31D/S92K/Q96A | 1.51 / 1.13 / 0.60 | 1.08 | 0/9 |
| 30 | A32D/D91T/F95N | n.d. / n.d. / 2.89 | 2.89 | 0/9 |
| 31 | N33C/R53A/R90F | 3.57 / n.d. / n.d. | 3.57 | 3/9 (3.86) |
| 32 | Y29N/R90P/G94L | 2.60 / 2.06 / 2.26 | 2.31 | 6/9 (3.85) |
| 33 | N51Q/R90E/Q96P | n.d. / 4.00 / n.d. | 4.00 | 1/9 (3.17) |
| 34 | Y31T/S55K/F98W | 3.41 / 2.77 / 2.83 | 3.01 | 3/9 (3.97) |
| 35 | Y29V/N33M | 4.13 / 4.50 / 4.50 | 4.38 | 3/9 (3.78) |
| 36 | D25C/F98G | n.d. / 3.58 / n.d. | 3.58 | 0/9 |
| 37 | L27F/S88Q/R90M | 4.67 / n.d. / n.d. | 4.67 | 1/9 (2.75) |
| 38 | G94C/F95Q/Q96K | 3.11 / 3.56 / n.d. | 3.33 | 4/9 (4.10) |
| 39 | Y30T/S89G/F98H | 1.49 / 1.45 / 1.44 | 1.46 | 2/9 (4.04) |
| 40 | R28T/Y30N/P54I | 1.49 / 1.32 / 0.82 | 1.21 | 1/9 (3.04) |
| 41 | P54W/S88T/F95W | 3.50 / 4.97 / n.d. | 4.23 | 4/9 (3.69) |
| 42 | D25R/N33T/P54M | 4.55 / 5.04 / 3.57 | 4.38 | 3/9 (4.32) |
| 43 | D25P/R90G/V97T | 2.58 / 3.50 / 2.21 | 2.76 | 2/9 (4.28) |
| 44 | R53Y/S55D/D91R | 3.27 / 4.13 / 3.30 | 3.57 | 1/9 (3.31) |
| 45 | Y29A/S89N/G94S | n.d. / 5.60 / 2.56 | 4.08 | 4/9 (3.70) |
| 46 | N51G/D91K/S93D | 2.84 / 2.80 / 2.71 | 2.78 | 4/9 (4.04) |

Excerpt, the final 7 entries:

{"changes": "R28T/Y30N/P54I", "replicates, log10 nM": "1.49 / 1.32 / 0.82", "log10 Kd (nM), mean": "1.21", "signal with controls": "1/9 (3.04)"}
{"changes": "P54W/S88T/F95W", "replicates, log10 nM": "3.50 / 4.97 / n.d.", "log10 Kd (nM), mean": "4.23", "signal with controls": "4/9 (3.69)"}
{"changes": "D25R/N33T/P54M", "replicates, log10 nM": "4.55 / 5.04 / 3.57", "log10 Kd (nM), mean": "4.38", "signal with controls": "3/9 (4.32)"}
{"changes": "D25P/R90G/V97T", "replicates, log10 nM": "2.58 / 3.50 / 2.21", "log10 Kd (nM), mean": "2.76", "signal with controls": "2/9 (4.28)"}
{"changes": "R53Y/S55D/D91R", "replicates, log10 nM": "3.27 / 4.13 / 3.30", "log10 Kd (nM), mean": "3.57", "signal with controls": "1/9 (3.31)"}
{"changes": "Y29A/S89N/G94S", "replicates, log10 nM": "n.d. / 5.60 / 2.56", "log10 Kd (nM), mean": "4.08", "signal with controls": "4/9 (3.70)"}
{"changes": "N51G/D91K/S93D", "replicates, log10 nM": "2.84 / 2.80 / 2.71", "log10 Kd (nM), mean": "2.78", "signal with controls": "4/9 (4.04)"}

Three control strains display no target. For library AAYL52, 28% of the pairings with them gave a signal, with a median of 3.91 and one signal in twenty below 2.90, so weak values seen in few replicates may be background. Also given: how often the same scFv was detected with the empty control strains, with their mean in brackets.

The measurements come from Engelhart et al. 2022 (doi:10.1038/s41597-022-01779-4) through the FLAb antibody collection.